High-throughput results from PubChem.
In the library only some 16% were active in any assay of this set; here they are far more common.
miR-21 reporter – miR-21 reporter, rising signal; HeLa miR-21 FLuc reporter, luciferase, 48 h; Potency, µM (highest dose often 38.3 µM), for the others: top-dose reporter change, positive = more light; 340,000 tested, under 10 active; AID 2288; active = well fitted rising curve with a large enough effect; inconclusive = small, poorly fitted or top-dose-only effect; inactive = no such curve, though single readings can be large or run the other way;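 further: % of control where 0% means no effect; miR-21 action dims this reporter so a rising signal means less miR-21 action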
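Luminescence from a firefly luciferase reporter carrying a miR-21 binding site downstream, stably expressed under a CMV promoter in HeLa cells that make miR-21 endogenously, reports miRNA modulation after 48 h compound exposure up to approximately 40uM final.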
uPA generation – cell surface uPA generation inhibition. Potency, µM (series often up to 38.3 µM), for the others: at the top dose activity change, negative = inhibition, hits mostly inhibitors. 0.31% of 330,000 active. cell surface uPA generation assay, qHTS; active = well fitted inhibition curve with a large enough effect; inconclusive = small, poorly fitted or top-dose-only effect; inactive = no such curve, though single readings can be large or run the other way; tested in mouse RAW 264.7 cells; also: potency is read from the fitted curve at half-maximal effect; % is scaled to controls: 0 for no effect and ±100 for the full control effect; nearly all actives have a fitted effect of over 55% in size
DT40 TDP1 CPT – DT40-hTDP1 cell growth loss with CPT | AID 686979 | Potency, µM (highest dose often 46.2 µM), inactives show at the highest dose activity change, negative = growth inhibition, hits mostly inhibitors | 12% of 420,000 active | chicken DT40 Tdp1-/-;hTDP1 cells + 20 nM CPT, ATP luminescence, 48 h; also: potency is read from the fitted curve at half-maximal effect; % is scaled to controls: 0 for no effect and ±100 for the full control effect; nearly all actives have a fitted effect of over 55% in size
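Cell growth measured by CellTiter-Glo luminescence after a minimum 48 h, 37 C compound exposure with 20 nM CPT in Tdp1-knockout DT40 cells stably expressing hTDP1, seeded 400/well; qHTS titration format.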
TDP1 block – TDP1 (human) enzyme inhibition; Q9NUW8; recombinant TDP1, AlphaScreen DNA substrate cleavage; Potency, µM (series often up to 130 µM), without a hit: at the highest dose activity change, negative = inhibition, actives largely listed as inhibitors; 0.28% of 350,000 active; AID 485290; also: potency is read from the fitted curve at half-maximal effect; % is scaled to controls: 0 for no effect and ±100 for the full control effect; nearly all actives have a fitted effect of over 40% in size
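Recombinant E. coli-expressed Tdp1 (1 nM) preincubated with compound 15 min at RT, then 5'-biotin/3'-phosphotyrosine-FITC DNA substrate (15 nM) added for 5 min. AlphaScreen beads (10 ug/ml) added, 10 min RT; tyrosine-FITC cleavage read as signal loss.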
TDP1 cell noCPT – qHTS for Inhibitors of human tyrosyl-DNA phosphodiesterase 1 (TDP1): qHTS in cells in absence of CPT. DT40 Tdp1-/- hTDP1 cells, no CPT, ATP luminescence, 48 h. Potency, µM (doses to about 46.2 µM), for the others: top-dose activity change, negative = growth inhibition, actives largely listed as inhibitors. 15% of 420,000 active. AID 686978, 2013; also: potency is read from the fitted curve at half-maximal effect; % is scaled to controls: 0 for no effect and ±100 for the full control effect; nearly all actives have a fitted effect of over 55% in size
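A cellular qHTS used chicken DT40 cells lacking endogenous Tdp1 but carrying stably transfected human TDP1. Compounds were applied without camptothecin, and cell growth kinetics were judged by ATP-dependent luminescence after ≥48 hr.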
Numbers without * were called inactive; ? = inconclusive; . = no result; [ ] = another dose, or the depositor's remark. Unless noted, calls follow the shape of the dose curve; as a rule, active = well fitted curve in the direction sought with a large enough effect; inconclusive = small, poorly fitted or top-dose-only effect, or another doubt; inactive = no such curve, though single readings can be large; an effect the other way counts as inactive or inconclusive.

Key to letters: A = miR-21 reporter; B = uPA generation; C = DT40 TDP1 CPT; D = TDP1 block; E = TDP1 cell noCPT
> Cc1ccccc1N1CCN(S(=O)(=O)c2nnc(NC(=O)c3ccc(Cl)cc3)s2)CC1
  A: -2%; B: .; C: -5%; D: -6%; E: ?
> CN(CCOc1ccc(Cl)cc1)C(=O)c1cccc(S(=O)(=O)N2CCN(c3ccccc3)CC2)c1
  A: .; B: ?; C: 15µM*; D: .; E: 6.5µM*
> COc1ccc(-c2nn(CCC#N)cc2C(=O)Nc2ccccc2)cc1OC
  A: -7%; B: 34%; C: 23%; D: .; E: -7%
> NC(N)=Nc1ccc2[nH]c3c(c2c1)C[C@@]1(O)[C@H]2Cc4ccc(O)c5c4[C@@]1(CCN2CC1CC1)C3O5 (stereo partly specified)
  A: .; B: -6%; C: -7%; D: 0%; E: -8%
> CC(=NCCC1=CCCCC1)c1c(O)n(C)c(=O)n(C)c1=O
  A: 1%; B: -3%; C: 10µM*; D: 2%; E: 23µM*
> COC(=O)C1=C(C)NC(=S)NC1c1ccc(N(CCCl)CCCl)cc1Cl (stereo unspecified)
  A: .; B: -3%; C: 9.2µM*; D: .; E: 21µM*
> Cc1ccc(C(=O)Nc2c(C(=O)Nc3ccc(C)c(C)c3)sc3nc(C)cc(C)c23)cc1
  A: -53%; B: .; C: ?; D: 2%; E: 18µM*
> Cc1ccc2cc(NC(=O)c3ccccc3)ccc2n1
  A: -40%; B: ?; C: -21%; D: .; E: 10%
> C[C@H]1CC[C@@H]2[C@@H](C)[C@H]3[C@H](C[C@H]4[C@@H]5CC=C6C[C@@H](O[C@@H]7O[C@H](CO)[C@H](O)[C@H](O[C@@H]8O[C@H](CO)[C@@H](O)[C@H](O)[C@H]8O)[C@H]7O[C@@H]7O[C@@H](C)[C@H](O)[C@@H](O)[C@H]7O)CC[C@]6(C)[C@H]5CC[C@]34C)N2C1
  A: 5%; B: -6%; C: 15µM*; D: -3%; E: ?
> CC1CC[C@]2(NC1)OC1CC3C4CC=C5CC(O)CC[C@@]5(C)C4CC[C@]3(C)C1C2C (stereo partly specified)
  A: .; B: .; C: 12%; D: 5%; E: 5%
> O[C@@H]1CCCN2CCc3c([nH]c4ccccc34)[C@H]12
  A: .; B: -5%; C: 15µM*; D: .; E: ?
> Clc1cccc(Cl)c1
  A: .; B: .; C: .; D: 12%; E: .
> O=C1C=C(c2ccc3ncccc3c2)C[C@@H](c2ccc(Cl)cc2)C1
  A: .; B: ?; C: 23µM*; D: 3%; E: ?
> Cc1ccc(C)c(N2CCN(c3nc4ccc(Cl)cc4n4cnnc34)CC2)c1
  A: 0%; B: .; C: 18µM*; D: -3%; E: 16µM*
> Cc1cc(C)cc(Nc2nc3ccc(C)cc3n3cnnc23)c1
  A: -2%; B: 3%; C: -25%; D: .; E: ?
> Cc1ccccc1-n1nc(C)c2c1NC(=O)CSC2c1ccc(N(C)C)cc1 (stereo unspecified)
  A: 11%; B: .; C: ?; D: 0%; E: 18µM*
> Cc1cccc(-n2nc(C)c3c2NC(=O)CSC3c2ccccc2Cl)c1 (stereo unspecified)
  A: -1%; B: .; C: ?; D: 6%; E: 21µM*
> O=C1CSC(c2ccccc2Cl)c2cc(Cl)ccc2N1 (stereo unspecified)
  A: .; B: .; C: ?; D: 15%; E: 39µM*
> COc1ccc(C2SCC(=O)Nc3c2c(C)nn3-c2ccccc2)cc1OC (stereo unspecified)
  A: 2%; B: 2%; C: -18%; D: 2%; E: 1%
> CC(=O)N1CC(=O)Nc2ccc(Cl)cc2C1c1ccccc1 (stereo unspecified)
  A: 1%; B: -1%; C: 12%; D: .; E: -10%
> CN1CC(CO)=C[C@H]2c3cccc4[nH]cc(c34)C[C@H]21
  A: .; B: .; C: 9%; D: 4%[56.1 µM]; E: -1%
> CN1CCC2(CC1)CCN(C(=O)Oc1ccccc1)CC2
  A: .; B: .; C: 5%; D: .; E: -11%
> Cc1ncc2n1-c1ccc(Cl)cc1C(c1ccccc1F)=NC2O (stereo unspecified)
  A: .; B: .; C: .; D: 13%; E: .
> COc1ccc(NC(=O)CCOc2cc(C)ccc2C)cc1S(=O)(=O)N1CCCCC1
  A: .; B: -6%; C: ?; D: 0%; E: 21µM*
> Cc1ccc(C)c(OCC(=O)N2CCCN(C)CC2)c1
  A: -6%; B: -2%; C: 10%; D: 3%; E: -4%

Compound profiles, from the list above. Values in the order: miR-21 reporter	uPA generation	DT40 TDP1 CPT	TDP1 block	TDP1 cell noCPT
CN(CCOc1ccc(Cl)cc1)C(=O)c1cccc(S(=O)(=O)N2CCN(c3ccccc3)CC2)c1 is entered as .	?	15µM*	.	6.5µM*
COc1ccc(C2SCC(=O)Nc3c2c(C)nn3-c2ccccc2)cc1OC (stereo unspecified) is entered as 2%	2%	-18%	2%	1%
CC1CC[C@]2(NC1)OC1CC3C4CC=C5CC(O)CC[C@@]5(C)C4CC[C@]3(C)C1C2C (stereo partly specified) is entered as .	.	12%	5%	5%
COc1ccc(NC(=O)CCOc2cc(C)ccc2C)cc1S(=O)(=O)N1CCCCC1 is entered as .	-6%	?	0%	21µM*

Other results follow:
Key to letters: A = miR-21 reporter; B = uPA generation; C = DT40 TDP1 CPT; D = TDP1 block; E = TDP1 cell noCPT
> Cc1c(C(=O)Nc2ccc(Br)cc2F)oc2ccc(S(=O)(=O)N3CCCCC3)cc12
  A: 0%; B: .; C: ?; D: 3%; E: ?
> CCOC(=O)c1oc2ccc(S(=O)(=O)n3nc(-c4ccc(Cl)cc4)cc3N)cc2c1C
  A: 0%; B: -4%; C: 23µM*; D: 5%; E: 12µM*
> O=C(OC1CC2CCC(N2)C1C(=O)O)c1ccccc1 (stereo unspecified)
  A: .; B: 1%; C: 20%; D: 0%; E: 2%
> C=CCN1C(=O)NC(=O)/C(=C/c2ccc(OC)c(COc3ccc(NC(C)=O)cc3)c2)C1=O
  A: 25%; B: -4%; C: 2.6µM*; D: -9%; E: 3.7µM*
> CC(N)Cc1cn(Cc2ccccc2)c2ccccc12 (stereo unspecified)
  A: 4%; B: -4%; C: ?; D: .; E: 21µM*
> O=Cc1cn(Cc2ccc(Br)cc2)c2ccccc12
  A: 18%; B: -5%; C: -10%; D: .; E: -26%
> O=C(c1cc(-c2ccc(Cl)cc2)n[nH]1)N1CCN(S(=O)(=O)c2ccc(Br)s2)CC1
  A: 12%; B: .; C: ?; D: -2%; E: 15µM*
> O=C(c1cc(-c2ccc(Cl)cc2)n(-c2ccc(Cl)cc2Cl)n1)N1CCOCC1
  A: -1%; B: -4%; C: ?; D: -2%; E: ?
> NC(N)=Nc1ccc2[nH]c3c(c2c1)C[C@]1(O)[C@@H]2Cc4ccc(O)c5c4[C@]1(CCN2CC1CC1)[C@@H]3O5
  A: .; B: .; C: -24%; D: -5%[56.1 µM]; E: ?
> CCOc1cc(/C=N/NC(=O)c2cccs2)ccc1OC(=O)N1CCOCC1
  A: -17%; B: -5%; C: ?; D: 3%; E: 16µM*
> O=C(Nc1ccc(OC(=O)N2CCCC2)cc1)N1CCOCC1
  A: 1%; B: .; C: -9%; D: 5%; E: 0%
> CN1CC=C(/C=C/c2ccc(-c3ccccc3)cc2)CC1
  A: -4%; B: ?; C: 15µM*; D: .; E: 12µM*
> O=c1c2ccccc2nc(/C=C/c2ccc3c(c2)OCO3)n1-c1ccccc1
  A: 11%; B: 3%; C: ?; D: -2%; E: 23µM*
> O=c1c2ccccc2nc(/C=C/c2ccccn2)n1-c1ccccc1
  A: 3%; B: 7%; C: -25%; D: -8%; E: -20%
> COc1cccc(-n2c(/C=C\c3ccc(Cl)cc3)nc3ccccc3c2=O)c1
  A: 2%; B: .; C: ?; D: 3%[2.28 µM]; E: 18µM*
> COc1ccc(-n2c(/C=C/c3ccc(O)c(O)c3)nc3ccccc3c2=O)cc1
  A: 12%; B: 5%; C: ?; D: .; E: 18µM*
> COc1cc(/C=C/c2nc3ccccc3c(=O)n2-c2ccc(O)cc2)ccc1O
  A: 18%; B: 0%; C: ?; D: .; E: ?
> Cc1ccccc1CN1CCNCC1
  A: -5%; B: 5%; C: -15%; D: 5%; E: 2%
> CCC(=O)C1=C(c2cccc([N+](=O)[O-])c2)N(C(=O)CC)n2c(nnc2C2CCCCC2)S1
  A: ?; B: .; C: 3.3µM*; D: 0%; E: 4.1µM*
> CCc1ccc(CNC(=O)C2CCN(C(=O)c3ccc(-n4c(C)cc5ccccc54)s3)CC2)cc1
  A: 23%; B: .; C: 10µM*; D: -5%; E: 18µM*
